Results published in ChEMBL document CHEMBL4342410, “Design and Discovery of N-(3-(2-(2-Hydroxyethoxy)-6-morpholinopyridin-4-yl)-4-methylphenyl)-2-(trifluoromethyl)isonicotinamide, a Selective, Efficacious, and Well-Tolerated RAF Inhibitor Targeting RAS Mutant Cancers: The Path to the Clinic” (J Med Chem, 2020).

Protein sequences, listed by entry. Tags and fused reporters are not part of them.
UniProt P04049, whole entry Y340E/Y341E: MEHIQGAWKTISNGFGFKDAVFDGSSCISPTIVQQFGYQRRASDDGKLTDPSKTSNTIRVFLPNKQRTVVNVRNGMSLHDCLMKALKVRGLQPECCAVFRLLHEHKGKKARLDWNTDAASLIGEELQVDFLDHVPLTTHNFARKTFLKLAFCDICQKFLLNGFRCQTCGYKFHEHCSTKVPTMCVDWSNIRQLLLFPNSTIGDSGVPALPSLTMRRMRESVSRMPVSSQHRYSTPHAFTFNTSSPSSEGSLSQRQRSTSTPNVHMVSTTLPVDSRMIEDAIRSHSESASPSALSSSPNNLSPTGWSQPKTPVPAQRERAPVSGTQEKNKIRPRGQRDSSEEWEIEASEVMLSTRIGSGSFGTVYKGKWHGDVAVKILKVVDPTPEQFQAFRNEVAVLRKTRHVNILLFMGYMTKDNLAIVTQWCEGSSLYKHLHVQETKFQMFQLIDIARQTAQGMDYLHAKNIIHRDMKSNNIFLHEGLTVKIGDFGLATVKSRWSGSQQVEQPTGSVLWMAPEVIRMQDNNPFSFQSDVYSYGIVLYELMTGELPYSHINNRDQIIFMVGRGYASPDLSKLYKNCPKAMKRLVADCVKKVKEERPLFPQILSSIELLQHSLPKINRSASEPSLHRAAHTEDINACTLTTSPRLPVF

Key:
[1] = target: RAF proto-oncogene serine/threonine-protein kinase (Homo sapiens, UniProt P04049, Y340E/Y341E); test: Inhibition of CRAF Y340E/Y341E mutant (unknown origin) using human MEK1 K97R mutant as substrate pretreated for 30 mins followed by substrate addition measured after 40 mins by alphascreen assay
[2] = target: RAF proto-oncogene serine/threonine-protein kinase (Homo sapiens, UniProt P04049); test: Inhibition of CRAF in human Calu6 cells assessed as reduction MEK phosphorylation measured after 1 hr by sandwich ELISA; format: cell-based

IC50 [1] [nM] | EC50 [2] [nM] | Structure (SMILES)
0.4 | 6 | [2H]C1(Oc2ncc(-c3cc(NC(=O)c4cccc(C(F)(F)F)c4)cnc3C)cc2N2CCOCC2)CCOCC1
0.9 | 64 | Cc1ncc(NC(=O)c2cccc(C(F)(F)F)c2)cc1-c1c[nH]c(=O)c(N2CCOCC2)c1
